Measured values reported in patent US20150044209A1.

Chains of the proteins cited; added tags and fusions are not shown. Residues count along the entry.
UniProt P05019, 49-118 limits assumed: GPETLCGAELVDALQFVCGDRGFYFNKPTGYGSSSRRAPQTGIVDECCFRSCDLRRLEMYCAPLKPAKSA

Tests used:
human IGF-1 (human) [1] = biological target: human IGF-1 (human) (UniProt P05019); assay: SPR, multi-cycle, Trap flowed over amine-coupled ligand, 1:1 kinetic model, n=4
human IGF-1 (human) [2] = biological target: human IGF-1 (human) (UniProt P05019); assay: SPR (Biacore 3000), multi-cycle, ligand titrated over amine-coupled Trap, 1:1 kinetic model, n=4
[3] = biological target: ligand-immobilized surfaces (hIGF-I, mIGF-I and hIGF-II); assay: SPR, multi-cycle, Trap flowed over ligand-immobilized surfaces; ligand not named

Question: What does the source list for “Trap D: h-sIGF1R, purified from CHO cells by calcium hydroxyapatite (CHT) column followed by gel filtration (GF) (from UniProt P08069 31-935) (receptor)”?
Answer: Kd (human IGF-1 (human) [1]): 11 nM; Kd (human IGF-1 (human) [2]): 13 nM; koff [3]: 0.0008 s⁻¹

Question: How did the Kd (human IGF-1 (human) [2]) turn out when “Trap B: His-tagged h-sIGF1R purified from 293 cells (from UniProt P08069 31-935) (receptor)” was run?
Answer: 8 nM
